{"source": "patent US4584305A", "about": "“Aiding the regression of neoplastic disease with 2,3,5,6-tetrahydro-6-phenylimidazo[2,1-b]thiazole” (Janssen Pharmaceutica N.V., priority 1981, dated 1986)", "assay": "Toxicity (mouse LD50)", "conditions": "in vivo"}
{"smiles": "c1ccc(C2CN3CCSC3=N2)cc1", "note": "(stereo not shown) [levamisole, 2,3,5,6-tetrahydro-6-phenyl-imidazo[2,1-b]thiazole]", "values": [{"measurement": "LD50", "value": 121, "unit": "mg/kg"}]}
